SMILES strings stand for the structures.

Chains of the proteins cited; added tags and fusions are not shown. Lines headed by an entry give the natural chain unless they say otherwise; changes in a name come on top.
UniProt P41145: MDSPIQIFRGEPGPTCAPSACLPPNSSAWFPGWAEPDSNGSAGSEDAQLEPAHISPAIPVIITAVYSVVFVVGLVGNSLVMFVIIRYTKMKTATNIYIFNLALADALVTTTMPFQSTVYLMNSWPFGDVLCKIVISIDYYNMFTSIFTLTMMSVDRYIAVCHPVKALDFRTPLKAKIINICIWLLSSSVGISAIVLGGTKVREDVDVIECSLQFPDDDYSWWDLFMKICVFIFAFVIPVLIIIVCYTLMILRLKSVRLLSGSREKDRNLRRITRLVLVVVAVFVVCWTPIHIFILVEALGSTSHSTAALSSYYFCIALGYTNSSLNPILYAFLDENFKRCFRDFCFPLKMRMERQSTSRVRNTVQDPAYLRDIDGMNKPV
UniProt P41143: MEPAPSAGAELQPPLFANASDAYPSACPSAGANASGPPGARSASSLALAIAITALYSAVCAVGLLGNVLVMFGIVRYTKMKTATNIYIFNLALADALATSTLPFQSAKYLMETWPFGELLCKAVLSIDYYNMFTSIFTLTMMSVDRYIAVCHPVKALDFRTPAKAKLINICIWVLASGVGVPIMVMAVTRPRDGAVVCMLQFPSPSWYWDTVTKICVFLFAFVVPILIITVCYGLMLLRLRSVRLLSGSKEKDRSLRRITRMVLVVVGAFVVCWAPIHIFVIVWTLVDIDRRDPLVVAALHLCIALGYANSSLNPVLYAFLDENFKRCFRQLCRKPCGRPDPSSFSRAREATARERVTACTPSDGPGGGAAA
UniProt P35372: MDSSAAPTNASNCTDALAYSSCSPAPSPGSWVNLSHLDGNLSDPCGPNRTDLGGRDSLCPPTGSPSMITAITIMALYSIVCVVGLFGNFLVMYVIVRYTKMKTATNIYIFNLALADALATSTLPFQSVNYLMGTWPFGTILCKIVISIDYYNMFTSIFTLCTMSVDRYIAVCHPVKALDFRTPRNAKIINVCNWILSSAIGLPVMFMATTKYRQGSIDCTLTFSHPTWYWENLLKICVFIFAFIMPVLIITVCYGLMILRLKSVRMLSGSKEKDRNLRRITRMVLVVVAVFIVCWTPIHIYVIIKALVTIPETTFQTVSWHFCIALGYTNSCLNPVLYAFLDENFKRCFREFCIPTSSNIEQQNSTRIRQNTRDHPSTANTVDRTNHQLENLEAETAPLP

The target in the assay is Opioid receptors; mu/kappa/delta (Homo sapiens, UniProt P41145+P41143+P35372). Description: Tested for the binding affinity against the opioid receptor in guinea pig brain using [3H]bremazocine. On the set-up: species or system Cavia porcellus. Conditions: target entry is the homologue from another species.

As a reminder, the IC50 is the concentration needed to halve the response being measured. Low values mean greater potency in that assay, high ones weaker potency in that assay. In turn, `Oc1ccc2c3c1O[C@H]1[C@H](O)CC[C@@]4(O)[C@@H](C2)N(CC2CC2)CC[C@]314` (stereo in doubt; 7) registered an IC50 of 6 nM.

`Oc1ccc2c3c1O[C@H]1[C@H](O)CC[C@@]4(O)[C@@H](C2)N(CC2CC2)CC[C@]314` (stereo in doubt; 6) registered an IC50 of 8.3 nM.

The record behind these values is ChEMBL document CHEMBL1127807 (J Med Chem, 1994).
